The values that follow are results of earlier work, collected in US20170354592A1 (ASCENDIA PHARMACEUTICALS, LLC, priority 2016, published 2017).

For the data set the following is noted: cited from earlier work.

Turning to “(±)-[3-(9H-carbazol-4-yloxy)-2-hydroxypropyl][2-(2-ethoxyphenoxy)ethyl] amine [Carvedilol]”, the aqueous solubility result is listed as “poor”.
